# Binding of CDR-mutated scFvs to a peptide of the spike HR2 region

Data: MIT Lincoln Laboratory AlphaSeq set, Engelhart et al. 2022, doi:10.1038/s41597-022-01779-4, as distributed in FLAb.

Antigen: PDVDLGDISGINAS, a 14-residue peptide of the SARS-CoV-2 spike HR2 region.

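Phage display of a naive human antibody library on the peptide gave the parent. In library AAYL49, one, two or three CDR residues were substituted; doubles and triples were drawn at random. In AlphaSeq, yeast of one mating type display the scFv and yeast of the other type display the target. After mating in shaken culture at 30 °C for 16 h, diploids were selected and their barcode pairs sequenced. The ratio of observed to expected reads was calibrated, replicate by replicate, on BCL2-family standards whose Kd was known from biolayer interferometry. Mating was done three times.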

Each scFv is VH, three GGGGS repeats, VL, as in the parent Ab-14, and differs from it in the CDRs of the heavy chain only.
VH: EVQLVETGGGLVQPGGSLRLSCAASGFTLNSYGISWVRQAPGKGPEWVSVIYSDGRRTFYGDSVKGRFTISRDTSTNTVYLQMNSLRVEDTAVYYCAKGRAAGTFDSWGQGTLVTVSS
VL: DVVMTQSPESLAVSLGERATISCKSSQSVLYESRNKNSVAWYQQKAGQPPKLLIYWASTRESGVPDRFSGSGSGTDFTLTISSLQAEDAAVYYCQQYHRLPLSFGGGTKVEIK

Sequences are complete VH domains.
All variants listed here change K65 of the VH, counted from its first residue.
Values are apparent Kd, the geometric mean of the replicates that gave a signal; lower means stronger binding.
"nd" means that the variant was in the library but no mating with the target was seen in any replicate; the authors take this as a sign of poor binding, and no number exists.
Three control strains display no target. For library AAYL49, 15% of the pairings with them gave a signal, with a median of 11 µM and one signal in twenty below 680 nM, so weak values seen in few replicates may be background. The control count says in how many pairings with the empty strains this scFv gave a signal.

With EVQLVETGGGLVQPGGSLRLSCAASGFTLNSYGISWVRQAPGKGPEWVSVIYSDGRRTFYGDWVRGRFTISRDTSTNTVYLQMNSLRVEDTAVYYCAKGRAAGTFDLWGQGTLVTVSS the result was 980 nM (1 of 3 replicates; controls 0 of 9). For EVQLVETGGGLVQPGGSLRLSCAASGFTLNSYGISWVRQAPGKGPEWVSVITKDGRRTFYGDSVEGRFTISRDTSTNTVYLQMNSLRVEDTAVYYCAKGRAAGTFDSWGQGTLVTVSS, the assay gave 7.6 µM (1 of 3 replicates; controls 3 of 9). For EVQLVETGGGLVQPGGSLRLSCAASGFTLNSYGISWVRQAPGKGPEWVSVIYSDGRRTFYGDSVWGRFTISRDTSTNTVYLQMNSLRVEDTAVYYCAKGRRAGTFDPWGQGTLVTVSS, the assay gave nd (0 of 3 replicates; controls 0 of 9). Variant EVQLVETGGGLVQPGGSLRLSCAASGFTLNSYGISWVRQAPGKGPEWVSVIYSDGRRTFYGDSVLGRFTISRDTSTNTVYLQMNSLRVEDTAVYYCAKGQAAGTFDWWGQGTLVTVSS showed 4.9 µM (1 of 3 replicates; controls 0 of 9). For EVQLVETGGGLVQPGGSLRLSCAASGFTLNSYGISWVRQAPGKGPEWVSEIYSDGRRKFYGDSVMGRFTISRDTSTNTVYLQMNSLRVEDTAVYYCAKGRAAGTFDSWGQGTLVTVSS, the assay gave nd (0 of 3 replicates; controls 1 of 9). Variant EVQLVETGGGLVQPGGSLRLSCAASNFTLNSYGISWVRQAPGKGPEWVSVIYSDGRRTFYGDSVDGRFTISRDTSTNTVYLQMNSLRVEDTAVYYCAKGRAAGDFDSWGQGTLVTVSS gave nd (0 of 3 replicates; controls 0 of 9).

Variant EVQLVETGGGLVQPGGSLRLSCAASGFTLNSYGISWVRQAPGKGPEWVSVIYSQGRRTFYGDQVCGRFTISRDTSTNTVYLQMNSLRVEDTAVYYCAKGRAAGTFDSWGQGTLVTVSS gave 14 µM (1 of 3 replicates; controls 2 of 9). For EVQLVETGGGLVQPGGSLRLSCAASGFTMESYGISWVRQAPGKGPEWVSVIYSDGRRTFYGDSVNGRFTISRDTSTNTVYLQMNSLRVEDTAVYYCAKGRAAGTFDSWGQGTLVTVSS, the assay gave 420 nM (3 of 3 replicates; controls 2 of 9). For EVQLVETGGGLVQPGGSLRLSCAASGGTLNSYGISWVRQAPGKGPEWVSVIYSDGRRTMYGDSVPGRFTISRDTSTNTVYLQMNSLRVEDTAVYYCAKGRAAGTFDSWGQGTLVTVSS, the assay gave nd (0 of 3 replicates; controls 2 of 9). Variant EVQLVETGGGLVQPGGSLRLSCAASGFTLNSYGISWVRQAPGKGPEWVSCIYSDGRRTFGGDSVIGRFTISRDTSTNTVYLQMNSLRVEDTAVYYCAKGRAAGTFDSWGQGTLVTVSS showed nd (0 of 3 replicates; controls 1 of 9). Variant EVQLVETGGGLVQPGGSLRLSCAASGFTLNSYGISWVRQAPGKGPEWVSVIYSDGRRTFYGDSHSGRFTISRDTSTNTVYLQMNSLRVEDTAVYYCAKGRAAGTFDSWGQGTLVTVSS showed nd (0 of 3 replicates; controls 0 of 9). Variant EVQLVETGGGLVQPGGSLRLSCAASGFTLNSYGISWVRQAPGKGPEWVSVIYSDGRRTFYGDPVYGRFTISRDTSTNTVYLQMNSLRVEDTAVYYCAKGNAAGTFDSWGQGTLVTVSS gave 33 nM (3 of 3 replicates; controls 2 of 9).

Variant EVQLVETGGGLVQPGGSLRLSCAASGFTLNSYGISWVRQAPGKGPEWVSVIYSDGRRTWPGDSVGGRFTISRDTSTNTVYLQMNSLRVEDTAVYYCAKGRAAGTFDSWGQGTLVTVSS showed 2.2 µM (1 of 3 replicates; controls 0 of 9). For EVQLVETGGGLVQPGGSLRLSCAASGFTLNSYGISWVRQAPGKGPEWVSVIYSDGRRTSYGDSVCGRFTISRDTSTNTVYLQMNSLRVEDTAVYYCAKCRAAGTFDSWGQGTLVTVSS, the assay gave 230 nM (1 of 3 replicates; controls 0 of 9). For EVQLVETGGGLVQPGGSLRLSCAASGFTLNSYGISWVRQAPGKGPEWVSVIYEDGRRTFYGDSVVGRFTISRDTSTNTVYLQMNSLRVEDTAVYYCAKGRAAGTFDCWGQGTLVTVSS, the assay gave nd (0 of 3 replicates; controls 0 of 9). For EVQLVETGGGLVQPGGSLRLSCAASGFTLNSYGISWVRQAPGKGPEWVSVIYTDGRRTFYGDSVVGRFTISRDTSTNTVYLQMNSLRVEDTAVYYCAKGRAAGTFDSWGQGTLVTVSS, the assay gave 2.4 µM (3 of 3 replicates; controls 4 of 9). For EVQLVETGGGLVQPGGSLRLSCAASGFTLNSYNISWVRQAPGKGPEWVSVIYSFGRRTFYGDSVLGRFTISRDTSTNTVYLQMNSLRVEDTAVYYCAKGRAAGTFDSWGQGTLVTVSS, the assay gave nd (0 of 3 replicates; controls 0 of 9). Variant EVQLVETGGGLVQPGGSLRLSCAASGFMLNSYGISWVRQAPGKGPEWVSVIYSDGRMTFYGDSVRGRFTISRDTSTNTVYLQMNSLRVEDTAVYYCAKGRAAGTFDSWGQGTLVTVSS showed nd (0 of 3 replicates; controls 0 of 9).

For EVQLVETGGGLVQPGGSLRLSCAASGFTINSYGISWVRQAPGKGPEWVSVIYSDLRRTFYGDSVNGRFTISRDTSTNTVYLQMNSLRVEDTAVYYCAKGRAAGTFDSWGQGTLVTVSS, the assay gave nd (0 of 3 replicates; controls 2 of 9).

2 of these entries, quoted again:

VH	apparent Kd	seen in	empty controls
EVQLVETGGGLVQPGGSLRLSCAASGFTLNSYGISWVRQAPGKGPEWVSVIYSDGRRTFYGDPVYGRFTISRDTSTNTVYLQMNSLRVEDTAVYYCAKGNAAGTFDSWGQGTLVTVSS	33 nM	3/3	2/9
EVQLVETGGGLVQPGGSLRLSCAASGFTLNSYGISWVRQAPGKGPEWVSEIYSDGRRKFYGDSVMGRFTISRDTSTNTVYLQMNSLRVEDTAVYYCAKGRAAGTFDSWGQGTLVTVSS	nd	0/3	1/9